Data on two compounds can be found in patent publication US8198311B2, “Modulators of glucocorticoid receptor, AP-1, and/or NF-κB activity and use thereof” (Bristol-Myers Squibb Company, priority 2006, dated 2012).

Amino acid sequences for entries named in this document (tags omitted).
UniProt P04150, whole entry: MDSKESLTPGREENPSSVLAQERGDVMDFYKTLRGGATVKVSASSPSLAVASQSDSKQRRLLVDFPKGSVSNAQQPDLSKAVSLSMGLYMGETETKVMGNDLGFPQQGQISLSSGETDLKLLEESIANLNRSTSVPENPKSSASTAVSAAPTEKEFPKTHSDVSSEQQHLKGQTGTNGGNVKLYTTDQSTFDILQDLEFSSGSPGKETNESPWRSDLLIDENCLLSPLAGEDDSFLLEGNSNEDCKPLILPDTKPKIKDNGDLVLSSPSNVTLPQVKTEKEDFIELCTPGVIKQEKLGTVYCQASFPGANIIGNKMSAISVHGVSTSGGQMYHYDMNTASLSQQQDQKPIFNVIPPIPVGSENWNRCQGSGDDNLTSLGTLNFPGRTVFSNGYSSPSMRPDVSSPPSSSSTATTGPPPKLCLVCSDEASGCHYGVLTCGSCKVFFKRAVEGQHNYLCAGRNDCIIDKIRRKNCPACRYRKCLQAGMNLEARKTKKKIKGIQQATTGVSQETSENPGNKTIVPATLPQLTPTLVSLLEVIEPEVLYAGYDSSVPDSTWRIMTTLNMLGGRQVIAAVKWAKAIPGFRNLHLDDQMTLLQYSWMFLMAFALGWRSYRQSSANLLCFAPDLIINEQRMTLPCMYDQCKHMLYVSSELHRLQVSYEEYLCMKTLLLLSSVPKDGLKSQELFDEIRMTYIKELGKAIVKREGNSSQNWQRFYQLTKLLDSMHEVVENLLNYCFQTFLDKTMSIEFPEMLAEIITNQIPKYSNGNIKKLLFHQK

What is called Ki is a dissociation constant, usually derived from enzyme kinetics or from competition with a known ligand.

For test [1], the system named is AP-1 induced transcriptional activity. Description: Cellular Transrepressional Assay (AP-1 luciferase reporter in A549 cells, PMA-activated). To be noted: read-out: AP-1 (EC50, nM) (Cellular Transrepression Assay), pAP-1-Luc, 10 ng/ml PMA, 7 hours. The method, then: To measure the ability of test molecules to inhibit AP-1 induced transcriptional activity an A549 cell was utilized which was stably transfected with a plasmid containing 7×AP-1 DNA binding sites (pAP-1-Luc plasmid, Stratagene Co. La Jolla, Calif.) followed by the gene for luciferase. Cells were activated with 10 ng/ml of phorbol myristic acid (PMA) plus or minus test molecules for 7 hours. After 7 hours a luciferase reagent was added to measure luciferase enzymatic activity in the cell. After a 10 minute incubation of luciferase reagent with cells, luminescence was measured in a TopCount luminescence counter. Repression of AP-1 activity was calculated as the percentage decrease in the signal induced by PMA alone. Test molecules were analyzed in the concentration range from 0.1 nM to 40 μM. EC50s were determined by using standard curve fitting methods such as Excel fit (Microsoft Co.). An EC50 is the test molecule concentration at which there is a 50% repression of the maximal inhibition of transcription, i.e. a 50% reduction of AP-1 activity. In the absence of an EC50 the maximum % inhibition recorded is the inhibition of AP-1 at a compound concentration of 10 micromolar.
In general terms: In a reporter assay the amount or activity of a reporter protein is the signal.

The target of test [2] is human glucocorticoid receptor (Homo sapiens, UniProt P04150). Description: Glucocorticoid Receptor Binding Assay (I), fluorescence polarization competitor kit (Fluormone GS Red). To be noted: read-out: GR (Ki, nM) (GR Binding Assay (I)), purified human recombinant full-length GR. Background: In fluorescence polarisation assays a small probe gives low polarisation when free and higher when bound to something large.

In the case of `CC[C@H](C)NC(=O)NCC(C)(C)C(CC(C)C)c1ccc2c(cnn2-c2ccc(F)cc2)c1` (stereo partly shown), the EC50 in test [1] was found to be 78 nM. Further, the Ki in test [2] came to 2.7 nM.
For the compound `CC[C@@H](C)NC(=O)NCC(C)(C)C(CC(C)C)c1ccc2c(cnn2-c2ccc(F)cc2)c1` (stereo partly shown), the EC50 in test [1] is 171 nM. The inhibition constant Ki in test [2] came to 1.8 nM.
